According to publication PMC7723054:
The list shows a part of the results.

T1: LIN28A (human?, UniProt Q9H9Z2 1-209)
T1 sequence: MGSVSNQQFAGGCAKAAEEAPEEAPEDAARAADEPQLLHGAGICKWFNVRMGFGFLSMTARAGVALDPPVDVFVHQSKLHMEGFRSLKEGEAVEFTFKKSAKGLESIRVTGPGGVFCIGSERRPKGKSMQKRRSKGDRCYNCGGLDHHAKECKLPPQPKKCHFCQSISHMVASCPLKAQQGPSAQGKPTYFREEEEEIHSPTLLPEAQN

T2: CIRBP (Homo sapiens, UniProt Q14011 1-172)
T2 sequence: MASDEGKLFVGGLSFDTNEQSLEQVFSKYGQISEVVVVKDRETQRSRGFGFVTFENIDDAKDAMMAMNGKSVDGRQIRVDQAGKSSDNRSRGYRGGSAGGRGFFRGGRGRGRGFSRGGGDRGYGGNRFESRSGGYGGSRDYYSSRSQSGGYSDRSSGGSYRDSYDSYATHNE

T3: DHX36 (Homo sapiens, UniProt Q9H2U1 1-1008)
T3 sequence: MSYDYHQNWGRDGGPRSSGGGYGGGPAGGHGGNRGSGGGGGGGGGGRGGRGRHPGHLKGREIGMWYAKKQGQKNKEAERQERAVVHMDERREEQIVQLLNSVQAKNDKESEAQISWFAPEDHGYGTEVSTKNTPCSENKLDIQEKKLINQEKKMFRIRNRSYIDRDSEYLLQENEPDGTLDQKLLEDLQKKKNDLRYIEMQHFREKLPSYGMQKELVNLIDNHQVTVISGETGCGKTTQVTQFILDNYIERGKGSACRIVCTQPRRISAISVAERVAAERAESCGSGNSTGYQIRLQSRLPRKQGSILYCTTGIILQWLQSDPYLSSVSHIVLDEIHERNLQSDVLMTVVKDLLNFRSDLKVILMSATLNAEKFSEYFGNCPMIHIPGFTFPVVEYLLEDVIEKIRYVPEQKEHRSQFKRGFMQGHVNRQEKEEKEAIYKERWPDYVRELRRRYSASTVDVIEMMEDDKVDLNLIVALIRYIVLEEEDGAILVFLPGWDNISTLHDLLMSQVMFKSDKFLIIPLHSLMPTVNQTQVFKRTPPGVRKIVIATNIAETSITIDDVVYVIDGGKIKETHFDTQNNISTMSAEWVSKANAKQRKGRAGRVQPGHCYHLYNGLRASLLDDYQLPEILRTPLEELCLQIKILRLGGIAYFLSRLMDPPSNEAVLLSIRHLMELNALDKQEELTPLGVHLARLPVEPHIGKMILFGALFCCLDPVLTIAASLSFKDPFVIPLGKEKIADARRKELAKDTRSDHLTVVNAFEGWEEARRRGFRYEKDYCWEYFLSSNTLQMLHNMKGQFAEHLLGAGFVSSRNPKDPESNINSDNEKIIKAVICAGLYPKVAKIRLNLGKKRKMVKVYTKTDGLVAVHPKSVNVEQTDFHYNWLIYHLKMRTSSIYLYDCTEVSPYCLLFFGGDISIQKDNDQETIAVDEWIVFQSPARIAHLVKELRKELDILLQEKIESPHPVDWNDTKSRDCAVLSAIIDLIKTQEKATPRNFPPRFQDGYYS

B1: hsa-mir-6746 (structured_RNA)
RNA: GGGAAGGGAGCGCUAAAUCGAAUCUCCCGGUGUACGAAGUUUCAGCCCUGGAGAGCUGCUGUCUCCAGGCUGAAGCUUCGUGCAC
B2: hsa-mir-9-1 (structured_RNA)
RNA: GGGAGAAACGCCAUGGACCGGAACUUAAGGUGUACGAAGUUUCAGCGUAUGAGUGGUGUGGAGUCUUCAUAAGCUGAAGCUUCGUGCAC
B3: hsa-mir-616 (structured_RNA)
RNA: GGGAAGGGAGCCCAAGAAAGCCGAUAGAGGUGUACGAAGUUUCAGCGACUUCCAUGACAUGAAAUAGGAAGUCGCUGAAGCUUCGUGCAC
B4: hsa-mir-23a (structured_RNA)
RNA: GGGAAGGUAUGGAUACUUGACGACAGAAGGUGUACGAAGUUUCAGCGGAUUUGCUUCCUGUCACAAAUCAGCUGAAGCUUCGUGCAC
B5: hsa-mir-2115 (structured_RNA)
RNA: GGGAAACGAAUGUUCGCAGCGAAAGGUCGGUGUACGAAGUUUCAGCGAUGGAGGAAUCACAUGAAUUCAUCGCUGAAGCUUCGUGCAC
B6: hsa-mir-5011 (structured_RNA)
RNA: GGGACACACUAUCUCGGUCGGAGAGUGAGGUGUACGAAGUUUCAGCGCACUCUGUAGUUUGGGUACACAGUGCGCUGAAGCUUCGUGCAC
B7: hsa-mir-3171 (structured_RNA)
RNA: GGGACCGAGGUUGACCGGCUAUGUACCUGGUGUACGAAGUUUCAGCUAUCUAUAUAUAUGUGUAGCUGAAGCUUCGUGCAC
B8: hsa-mir-3162 (structured_RNA)
RNA: GGGACAUAGAGUGAUUGGGCUAUACCGAGGUGUACGAAGUUUCAGCGGGAGCAUGAACAAUGUUUCUCACUCCCGCUGAAGCUUCGUGCAC
B9: hsa-mir-3943 (structured_RNA)
RNA: GGGAAGAUCCGACGAGGGCUUCCCAAAUGGUGUACGAAGUUUCAGCGGCGUGGACAACUUGCUGCUGAAGCUUCGUGCAC
B10: hsa-mir-6777 (structured_RNA)
RNA: GGGAAAGAUUGCCAAGGGGAUCGGUCCUGGUGUACGAAGUUUCAGCUGGUGGAGAUGGAGAGCCCUGAGCCUCCAGCUGAAGCUUCGUGCAC
B11: hsa-mir-548d-2 (structured_RNA)
RNA: GGGAAUUUUAUCGAGGUGAAACGAAUCGGGUGUACGAAGUUUCAGCUUUGCCAUUGAAAGUAAUGGCAAAGCUGAAGCUUCGUGCAC
B12: hsa-mir-3657 (structured_RNA)
RNA: GGGAAAGGGCUACGAGCAAAGACCCUAGGGUGUACGAAGUUUCAGCCACUAAUGUGAUUAAUGUUGUUGUGGCUGAAGCUUCGUGCAC
B13: hsa-mir-4496 (structured_RNA)
RNA: GGGAGCGCGAAUACUAGCUAUCUCGGUCGGUGUACGAAGUUUCAGCCCUCGAAGCUGCCUUUAGAAAUGAGGGCUGAAGCUUCGUGCAC
B14: hsa-mir-1289-2 (structured_RNA)
RNA: GGGACUUAGACUAAGGGGUACGCCUUUAGGUGUACGAAGUUUCAGCCCUGCCUCAGAACUACUGAACAGAGUCACUGGGUGUGGAGCUGAAGCUUCGUGCAC
B15: hsa-mir-6823 (structured_RNA)
RNA: GGGAGAAUAGCAGGGACACUGAAACGGAGGUGUACGAAGUUUCAGCUGCUGUUGCUGUGAAAGCUGAGCUGAAGCUUCGUGCAC
B16: hsa-mir-329-2 (structured_RNA)
RNA: GGGAAAGAAUUGUCGAGGACGCCGGUCCGGUGUACGAAGUUUCAGCUGUUUCUUUAUUGAGGACGAAACAGCUGAAGCUUCGUGCAC
B17: PARIS_ID5 (structured_RNA)
RNA: GGGAUAAACGUCCUGGCAAGGAAUAAUCGGUGUACGAAGUUUCAGCGCACGUGCUGCCAAAAUAGAAUAAUGUUGGUCCUCUCCUCAUGUGCGCUGAAGCUUCGUGCAC
B18: hsa-mir-4694 (structured_RNA)
RNA: GGGAAAGAUCGAGGUUACAUCAAUGCCUGGUGUACGAAGUUUCAGCUUUGCCUCUCUCAGAAAAUAGAGUCAAAGCUGAAGCUUCGUGCAC
B19: hsa-mir-557 (structured_RNA)
RNA: GGGAACGCUCAUGUGCGAAAGCCAUCAGGGUGUACGAAGUUUCAGCUGCUGGAGAAGUGUUUGCUGAAGCUUCGUGCAC
B20: hsa-mir-943 (structured_RNA)
RNA: GGGAACUAGAAUGGAUUGAAGCUUGCGAGGUGUACGAAGUUUCAGCUCACUGCUGCUGGCGCCCUGAGCUGAAGCUUCGUGCAC
B21: NEAT1_ParasoR_ID17 (structured_RNA)
RNA: GGGAAGGCUAAAGGAGGACUAACAUUCGGGUGUACGAAGUUUCAGCGUAAUGAUCAUCACUUUUCAUUAUGCUGAAGCUUCGUGCAC
B22: hsa-mir-1248 (structured_RNA)
RNA: GGGAAGUCGGGAAAUUGAUUUACAUCCGGGUGUACGAAGUUUCAGCAAAUUGCAGACACUAGGACCAUGUCUUGGUUUUUGCAAUAAUGGCUGAAGCUUCGUGCAC
B23: hsa-mir-4270 (structured_RNA)
RNA: GGGAAGCAGGGUCGUACACCAGUUAUUGGGUGUACGAAGUUUCAGCGGGCAGAAAUAGAUGGCCUGCUGAAGCUUCGUGCAC
B24: hsa-mir-15b (structured_RNA)
RNA: GGGAAAUUACACGGAGCUAUGAACUAAGGGUGUACGAAGUUUCAGCUUUACAUGCUACAGUCAAGAUGCGAAGCUGAAGCUUCGUGCAC
B25: hsa-mir-518d (structured_RNA)
RNA: GGGAAACCUAUAGGGAGGGUUACUUCGAGGUGUACGAAGUUUCAGCUUCUGUUGUCUGAAAGAAACCAAGCUGAAGCUUCGUGCAC
B26: NEAT1_ParasoR_ID3 (structured_RNA)
RNA: GGGACGUAAAUUCGGGGUUGACGAAACUGGUGUACGAAGUUUCAGCAAAAACCACAAACAUUAUUUUGUUCUUUUUGCUGAAGCUUCGUGCAC

These binders were tested against T1, LIN28A (assay: FOREST: bead pull-down of RNA structure library v1, barcode microarray; U1A/LIN28A: 20 mM HEPES pH 7.5, 80 mM KCl, 20 mM NaCl, 10% glycerol, 2 mM DTT, 0.1 ug/uL BSA, 4 C; BG4/CIRBP/DHX36: 10 mM Tris-HCl pH 7.5, 100 mM KCl (or LiCl),; high values mean tight binding).

Binder | binding signal
B1 | 0.391 z-score
B2 | 0.416 z-score
B3 | 0.432 z-score
B4 | 0.399 z-score
B5 | 0.391 z-score
B6 | 0.425 z-score
B7 | 0.384 z-score
B8 | 0.383 z-score
B9 | 0.383 z-score
B10 | 0.387 z-score
B11 | 0.387 z-score
B12 | 0.408 z-score
B13 | 0.428 z-score
B14 | 0.431 z-score
B15 | 0.421 z-score
B16 | 0.384 z-score
B17 | 0.405 z-score
B18 | 0.433 z-score
B19 | 0.424 z-score
B20 | 0.393 z-score
B21 | 0.426 z-score
B22 | 0.385 z-score
B23 | 0.38 z-score
B24 | 0.431 z-score
B25 | 0.392 z-score
B26 | 0.422 z-score

These binders were tested against T2, CIRBP in the same assay as above.

Binder | binding signal
B1 | -0.918 z-score
B2 | 0.386 z-score
B3 | -0.195 z-score
B4 | 0.686 z-score
B5 | 2.05 z-score
B6 | -0.17 z-score
B7 | 0.177 z-score
B8 | 1.46 z-score
B9 | -0.592 z-score
B10 | 0.611 z-score
B11 | 1.34 z-score
B12 | -0.229 z-score
B13 | 0.491 z-score
B14 | 0.433 z-score
B15 | 1.45 z-score
B16 | -0.0865 z-score
B17 | 0.535 z-score
B18 | 1.07 z-score
B19 | 0.528 z-score
B20 | 0.935 z-score
B21 | 1.58 z-score
B22 | 2.32 z-score
B23 | 0.0138 z-score
B24 | 0.0296 z-score
B25 | 1.08 z-score
B26 | 0.81 z-score

Each binder was assayed against T3, DHX36 in the same assay as above.

Binder | binding signal
B1 | -0.565 z-score
B2 | -0.0238 z-score
B3 | -0.357 z-score
B4 | -0.263 z-score
B5 | 0.332 z-score
B6 | 0.195 z-score
B7 | -0.374 z-score
B8 | 0.32 z-score
B9 | -0.373 z-score
B10 | 1.29 z-score
B11 | -0.184 z-score
B12 | -0.64 z-score
B13 | 0.0133 z-score
B14 | 0.179 z-score
B15 | 0.541 z-score
B16 | 0.0667 z-score
B17 | -1.02 z-score
B18 | 0.256 z-score
B19 | -0.346 z-score
B20 | 0.0801 z-score
B21 | 0.793 z-score
B22 | 0.51 z-score
B23 | -1.01 z-score
B24 | -0.428 z-score
B25 | 0.232 z-score
B26 | -0.0659 z-score
